Reference: article PMC6730478, “Discovery of N-(2-Aminophenyl)-4-(bis(2-chloroethyl)amino)Benzamide as a Potent Histone Deacetylase Inhibitor” (Frontiers in Pharmacology, 2019)

Tested on: HepG2 cells
Assay: Cell cycle assay (PI staining, flow cytometry)
Assay type: cell-based
Details: 6 h, control 21.24%
Method: Cells were then washed twice with cold phosphate-buffered saline (PBS) and fixed in 70% precooled ethanol at 4°C for 12 h. After the fixation, cells were washed again with PBS and stained with PI/RNase A for 30 min at room temperature and eventually subjected to flow cytometry (CytoFLEX, Beckman Coulter) for cell cycle distribution determination.

Compound: O=C(CCCCCCC(=O)Nc1ccccc1)NO [SAHA, Suberoylanilide hydroxamic acid, reference compound]
- HepG2 cells at the G2/M phase (1 µM): 23.98%
- HepG2 cells at the G2/M phase (3 µM): 25.89%
- HepG2 cells at the G2/M phase (9 µM): 27.02%
